Patent publication US7829568B2, “Substituted 5,6,7,8-tetrahydroimidazo[1,2-a]pyridin-2-ylamine compounds and their use for producing drugs” (Gruenenthal GmbH, priority 2005, dated 2010)

Protein sequences, listed by entry. Tags and fused reporters are not part of them.
UniProt O35433, whole entry: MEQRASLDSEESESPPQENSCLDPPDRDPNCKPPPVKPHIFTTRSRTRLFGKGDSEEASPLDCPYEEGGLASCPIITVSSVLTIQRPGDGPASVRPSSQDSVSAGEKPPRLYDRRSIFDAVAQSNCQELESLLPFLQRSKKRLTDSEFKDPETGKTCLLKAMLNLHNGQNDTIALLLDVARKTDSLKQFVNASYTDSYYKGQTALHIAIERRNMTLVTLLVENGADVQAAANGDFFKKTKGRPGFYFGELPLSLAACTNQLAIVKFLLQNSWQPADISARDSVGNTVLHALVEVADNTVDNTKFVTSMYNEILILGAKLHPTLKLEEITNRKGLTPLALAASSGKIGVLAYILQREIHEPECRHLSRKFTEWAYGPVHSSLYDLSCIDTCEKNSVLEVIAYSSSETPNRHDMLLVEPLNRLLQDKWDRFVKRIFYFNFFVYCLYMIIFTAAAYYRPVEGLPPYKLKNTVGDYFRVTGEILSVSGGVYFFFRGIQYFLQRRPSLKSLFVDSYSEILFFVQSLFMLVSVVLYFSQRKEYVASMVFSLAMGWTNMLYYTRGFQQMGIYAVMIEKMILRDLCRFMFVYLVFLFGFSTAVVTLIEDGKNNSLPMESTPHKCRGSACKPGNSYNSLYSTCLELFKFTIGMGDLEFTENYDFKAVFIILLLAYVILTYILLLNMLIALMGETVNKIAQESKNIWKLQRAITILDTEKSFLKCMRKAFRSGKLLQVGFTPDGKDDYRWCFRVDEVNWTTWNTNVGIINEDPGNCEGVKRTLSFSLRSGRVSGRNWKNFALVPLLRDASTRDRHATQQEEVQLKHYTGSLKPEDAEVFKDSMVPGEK

Target: vanilloid receptor 1 (VR1/TRPV1) of rats (Rattus norvegicus, UniProt O35433)
Experiment: Functional analysis on the vanilloid receptor 1 (FLIPR Ca2+ influx assay in rat dorsal root ganglia cells)
Conditions: for VR1 (rat) (% inhibition in comparison with 10 μM CP): then 100 nM capsaicin after 5 min, relative to maximum inhibition with 10 μM capsaicin; for inhibition at 10 µM: read-out: VR1 (rat) (% inhibition in comparison with 10 μM CP); for activation at 10 µM: read-out: VR1 (rat) (% stimulation in comparison with 10 μM CP)

With “4-methyl-2-({2-[methyl-(naphthalene-1-carbonyl)-amino]-5,6,7,8-tetrahydro-imidazo[1,2-a]pyridine-3-carbonyl}-amino)-valeric acid tert-benzyl ester [Example 184]” the “VR1 (rat) (% inhibition in comparison with 10 μM CP)” value (compound 10 μM, rat DRG cells) was 41% and the “VR1 (rat) (% stimulation in comparison with 10 μM CP)” value (compound 10 μM, rat DRG cells, Ca2+ signal relative to 10 μM capsaicin (CP)) was 35%.
In the case of `CCCCN(C(=O)c1ccc(F)c(F)c1)c1nc2n(c1C(=O)NC1CCc3ccccc31)CCCC2` (centres unmarked) [Example 12, 2-[butyl-(3,4-difluoro-benzoyl)-amino]-5,6,7,8-tetrahydro-imidazo[1,2-a]pyridine-3-carboxylic acid indan-1-ylamide], the inhibition at 10 µM is reported as 73% and the activation at 10 µM is reported as 48%.
`CCCCN(C(=O)c1ccc(F)c(F)c1)c1nc2n(c1C(=O)NC1CCC(C)CC1)CCCC2` (centres unmarked) [Example 16, 2-[butyl-(3,4-difluoro-benzoyl)-amino]-5,6,7,8-tetrahydro-imidazo[1,2-a]pyridine-3-carboxylic acid (4-methyl-cyclohexyl)-amide] showed an inhibition at 10 µM of 100% and an activation at 10 µM of 90%.
With `CCCCN(C(=O)c1cccc(Cl)c1)c1nc2n(c1C(=O)NC(C)C(C)C)CCCC2` (centres unmarked) [Example 19, 2-[butyl-(3-chloro-benzoyl)-amino]-5,6,7,8-tetrahydro-imidazo[1,2-a]pyridine-3-carboxylic acid (1,2-dimethyl-propyl)-amide] the inhibition at 10 µM was 87% and the activation at 10 µM was 49%.
With `CCCCN(C(=O)c1ccc(F)c(F)c1)c1nc2n(c1C(=O)NCCCc1ccccc1)CCCC2` [Example 28, 2-[butyl-(3,4-difluoro-benzoyl)-amino]-5,6,7,8-tetrahydro-imidazo[1,2-a]pyridine-3-carboxylic acid (3-phenyl-propyl)-amide] the inhibition at 10 µM was 43%.
`CCC(C)C(NC(=O)c1c(N(C)C(=O)c2cccc(Cl)c2)nc2n1CCCC2)C(=O)OC(C)(C)C` (centres unmarked) [Example 38, 2-({2-[(3-chloro-benzoyl)-methyl-amino]-5,6,7,8-tetrahydro-imidazo[1,2-a]pyridine-3-carbonyl}-amino)-3-methyl-pentanoic acid tert-butyl ester] showed an inhibition at 10 µM of 40%.
In the case of `CCCCN(C(=O)c1cccc(Cl)c1)c1nc2n(c1C(=O)NC(C)c1cccc3ccccc13)CCCC2` (centres unmarked) [Example 39, 2-[butyl-(3-chloro-benzoyl)-amino]-5,6,7,8-tetrahydro-imidazo[1,2-a]pyridine-3-carboxylic acid (1-naphthalen-1-yl-ethyl)-amide], the inhibition at 10 µM is reported as 99% and the activation at 10 µM is reported as 38%.
In the case of `CC(C)CC(NC(=O)c1c(N(C)C(=O)c2cccc(Cl)c2)nc2n1CCCC2)C(=O)OCc1ccccc1` (centres unmarked) [Example 42, 2-({2-[(3-chloro-benzoyl)-methyl-amino]-5,6,7,8-tetrahydro-imidazo[1,2-a]pyridine-3-carbonyl}-amino)-4-methyl-pentanoic acid benzyl ester], the inhibition at 10 µM is reported as 90% and the activation at 10 µM is reported as 43%.
Compound `CCCCN(C(=O)c1cccc(Cl)c1)c1nc2n(c1C(=O)NCc1ccccc1OCC)CCCC2` [Example 43, 2-[butyl-(3-chloro-benzoyl)-amino]-5,6,7,8-tetrahydro-imidazo[1,2-a]pyridine-3-carboxylic acid 2-ethoxy-benzylamide] has an inhibition at 10 µM of 104% and an activation at 10 µM of 59%.
`CCCCN(C(=O)c1cccc(Cl)c1)c1nc2n(c1C(=O)NCc1ccc(F)cc1F)CCCC2` [Example 47, 2-[butyl-(3-chloro-benzoyl)-amino]-5,6,7,8-tetrahydro-imidazo[1,2-a]pyridine-3-carboxylic acid 2,4-difluoro-benzylamide] showed an inhibition at 10 µM of 81% and an activation at 10 µM of 60%.
In the case of `CCCCN(C(=O)c1cccc(Cl)c1)c1nc2n(c1C(=O)NCc1ccccc1C(F)(F)F)CCCC2` [Example 51, 2-[butyl-(3-chloro-benzoyl)-amino]-5,6,7,8-tetrahydro-imidazo[1,2-a]pyridine-3-carboxylic acid 2-trifluoromethyl-benzylamide], the inhibition at 10 µM is reported as 96% and the activation at 10 µM is reported as 47%.
For `CCCCN(C(=O)c1cccc(Cl)c1)c1nc2n(c1C(=O)NC1CCc3ccccc31)CCCC2` (centres unmarked) [Example 52, 2-[butyl-(3-chloro-benzoyl)-amino]-5,6,7,8-tetrahydro-imidazo[1,2-a]pyridine-3-carboxylic acid indan-1-ylamide], the inhibition at 10 µM was 101% and the activation at 10 µM was 53%.
`CCCCN(C(=O)c1ccc(F)c(F)c1)c1nc2n(c1C(=O)N1CCN(C(c3ccccc3)c3ccccc3)CC1)CCCC2` [Example 56, N-[3-(4-benzhydryl-piperazine-1-carbonyl)-5,6,7,8-tetrahydro-imidazo[1,2-a]pyridin-2-yl]-N-butyl-3,4-difluoro-benzamide] was tested, and the inhibition at 10 µM was 53%.
For `CC(C)CC(NC(=O)c1c(N(C)C(=O)c2cccc3ccccc23)nc2n1CCCC2)C(=O)OCc1ccccc1` (centres unmarked) [Example 57, 4-methyl-2-({2-[methyl-(naphthalene-1-carbonyl)-amino]-5,6,7,8-tetrahydro-imidazo[1,2-a]pyridine-3-carbonyl}-amino)-pentanoic acid benzyl ester], the inhibition at 10 µM was 103% and the activation at 10 µM was 40%.
`CCCCN(C(=O)c1cccc(Cl)c1)c1nc2n(c1C(=O)NCc1ccc(OC)cc1OC)CCCC2` [Example 65, 2-[butyl-(3-chloro-benzoyl)-amino]-5,6,7,8-tetrahydro-imidazo[1,2-a]pyridine-3-carboxylic acid 2,4-dimethoxy-benzylamide] gave an inhibition at 10 µM of 30%.
With `CN(C(=O)c1cccc(Cl)c1)c1nc2n(c1C(=O)NC1CCCCC1OCc1ccccc1)CCCC2` (centres unmarked) [Example 67, 2-[(3-chloro-benzoyl)-methyl-amino]-5,6,7,8-tetrahydro-imidazo[1,2-a]pyridine-3-carboxylic acid (2-benzyloxy-cyclohexyl)-amide] the inhibition at 10 µM was 52%.
`CCCCN(C(=O)c1cccc(Cl)c1)c1nc2n(c1C(=O)NCCc1c[nH]c3c(C)cccc13)CCCC2` [Example 69, 2-[butyl-(3-chloro-benzoyl)-amino]-5,6,7,8-tetrahydro-imidazo[1,2-a]pyridine-3-carboxylic acid [2-(7-methyl-1H-indol-3-yl)-ethyl]-amide] gave an inhibition at 10 µM of 43%.
For `COc1cccc(CNC(=O)c2c(N(C)C(=O)c3cccc4ccccc34)nc3n2CCCC3)c1` [Example 73, 2-[methyl-(naphthalene-1-carbonyl)-amino]-5,6,7,8-tetrahydro-imidazo[1,2-a]pyridine-3-carboxylic acid 3-methoxy-benzylamide], the inhibition at 10 µM was 40%.
`CCCCN(C(=O)c1ccc(F)c(F)c1)c1nc2n(c1C(=O)NCc1ccc(F)cc1F)CCCC2` [Example 74, 2-[butyl-(3,4-difluoro-benzoyl)-amino]-5,6,7,8-tetrahydro-imidazo[1,2-a]pyridine-3-carboxylic acid 2,4-difluoro-benzylamide] was tested, and the inhibition at 10 µM was 94% and the activation at 10 µM was 32%.
Compound `CCCCN(C(=O)c1cccc(Cl)c1)c1nc2n(c1C(=O)NCC1COc3ccccc3O1)CCCC2` (centres unmarked) [Example 77, 2-[butyl-(3-chloro-benzoyl)-amino]-5,6,7,8-tetrahydro-imidazo[1,2-a]pyridine-3-carboxylic acid (2,3-dihydro-benzo[1,4]dioxin-2-ylmethyl)-amide] has an inhibition at 10 µM of 63%.
Compound `CCCCN(C(=O)c1cccc(Cl)c1)c1nc2n(c1C(=O)N1CCN(c3cccc(C(F)(F)F)c3)CC1)CCCC2` [Example 79, N-butyl-3-chloro-N-{3-[4-(3-trifluoromethyl-phenyl)-piperazine-1-carbonyl]-5,6,7,8-tetrahydro-imidazo[1,2-a]pyridin-2-yl}-benzamide] has an inhibition at 10 µM of 62%.
For `CCCCN(C(=O)c1ccc(F)c(F)c1)c1nc2n(c1C(=O)NC(COC)Cc1ccccc1)CCCC2` (centres unmarked) [Example 82, 2-[butyl-(3,4-difluoro-benzoyl)-amino]-5,6,7,8-tetrahydro-imidazo[1,2-a]pyridine-3-carboxylic acid (1-methoxymethyl-2-phenyl-ethyl)-amide], the inhibition at 10 µM was 77%.
Work on `CCCCN(C(=O)c1cccc(Cl)c1)c1nc2n(c1C(=O)NC(COC)Cc1ccccc1)CCCC2` (centres unmarked) [Example 86, 2-[butyl-(3-chloro-benzoyl)-amino]-5,6,7,8-tetrahydro-imidazo[1,2-a]pyridine-3-carboxylic acid (1-methoxymethyl-2-phenyl-ethyl)-amide] yielded an inhibition at 10 µM of 114% and an activation at 10 µM of 34%.
`CCCCN(C(=O)c1ccc(F)c(F)c1)c1nc2n(c1C(=O)NCc1ccccc1OC(F)(F)F)CCCC2` [Example 88, 2-[butyl-(3,4-difluoro-benzoyl)-amino]-5,6,7,8-tetrahydro-imidazo[1,2-a]pyridine-3-carboxylic acid 2-trifluoromethoxy-benzylamide] gave an inhibition at 10 µM of 132% and an activation at 10 µM of 44%.
With `CCCCN(C(=O)c1cccc(Cl)c1)c1nc2n(c1C(=O)N[C@H](C(=O)OCc1ccccc1)C(C)C)CCCC2` [Example 91] the inhibition at 10 µM was 121%.
`CCCCN(C(=O)c1ccc(F)c(F)c1)c1nc2n(c1C(=O)NC1CCCCC1C)CCCC2` (centres unmarked) [Example 93, 2-[butyl-(3,4-difluoro-benzoyl)-amino]-5,6,7,8-tetrahydro-imidazo[1,2-a]pyridine-3-carboxylic acid (2-methyl-cyclohexyl)-amide] showed an inhibition at 10 µM of 171% and an activation at 10 µM of 51%.
In the case of `CCCCN(C(=O)c1cccc(Cl)c1)c1nc2n(c1C(=O)NCCSCc1c(Cl)cccc1Cl)CCCC2` [Example 95, 2-[butyl-(3-chloro-benzoyl)-amino]-5,6,7,8-tetrahydro-imidazo[1,2-a]pyridine-3-carboxylic acid [2-(2,6-dichlor-benzylsulphanyl)-ethyl]-amide], the “VR1 (rat) (% inhibition in comparison with 10 μM CP)” value (compound 10 μM, rat DRG cells) is reported as 52%.
For `CCCCN(C(=O)c1ccc(F)c(F)c1)c1nc2n(c1C(=O)NCc1c(C)cccc1Cl)CCCC2` [Example 102, 2-[butyl-(3,4-difluoro-benzoyl)-amino]-5,6,7,8-tetrahydro-imidazo[1,2-a]pyridine-3-carboxylic acid 2-chloro-6-methyl-benzylamide], the inhibition at 10 µM was 97% and the activation at 10 µM was 66%.
